# Data published in patent US9862717B2 (Merck Patent GmbH, priority 2014, dated 2018).
# The chains behind the UniProt entries cited, without tags or fusion partners.
# UniProt P49336, whole entry: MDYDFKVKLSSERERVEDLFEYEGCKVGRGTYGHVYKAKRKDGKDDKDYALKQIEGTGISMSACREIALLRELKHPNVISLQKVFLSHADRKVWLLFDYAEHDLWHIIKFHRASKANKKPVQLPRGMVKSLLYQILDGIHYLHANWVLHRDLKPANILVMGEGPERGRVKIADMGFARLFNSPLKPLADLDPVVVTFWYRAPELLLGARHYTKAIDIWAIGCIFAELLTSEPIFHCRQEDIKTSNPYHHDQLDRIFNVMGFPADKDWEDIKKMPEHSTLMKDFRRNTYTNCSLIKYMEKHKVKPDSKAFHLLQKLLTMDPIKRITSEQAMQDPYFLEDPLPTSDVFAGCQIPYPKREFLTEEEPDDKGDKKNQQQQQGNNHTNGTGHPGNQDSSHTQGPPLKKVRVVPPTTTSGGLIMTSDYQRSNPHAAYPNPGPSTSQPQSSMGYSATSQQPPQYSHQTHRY
# UniProt P24863, whole entry partner: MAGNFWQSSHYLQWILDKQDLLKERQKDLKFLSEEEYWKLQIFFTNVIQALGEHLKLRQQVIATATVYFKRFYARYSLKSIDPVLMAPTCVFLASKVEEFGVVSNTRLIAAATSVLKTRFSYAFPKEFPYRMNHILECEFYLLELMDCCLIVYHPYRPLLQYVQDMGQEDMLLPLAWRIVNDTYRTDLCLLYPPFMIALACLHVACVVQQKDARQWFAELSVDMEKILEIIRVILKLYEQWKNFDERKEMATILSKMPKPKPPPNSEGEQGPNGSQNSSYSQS
# Biological target: CDK8/CycC (Homo sapiens, UniProt P49336)
# Assay: FRET based Lanthascreen binding competition assay for CDK8 inhibitory activity
# Conditions: CDK8 co-expressed with CycC; class symbols
row,SMILES,IC50 [µM]
1,Cc1n[nH]c2ncc(C(=O)N3CC[C@H](C)[C@@H]3c3ccc(C(F)(F)F)cc3)cc12,0.1 to 1
2,Cc1n[nH]c2cnc(C(=O)N3CCC[C@@H]3c3ccc(Cl)cc3)cc12,1 to 10
3,Cc1n[nH]c2ncc(C(=O)N3C[C@@H](C)C[C@H]3c3ccc(C(F)(F)F)cc3)cc12,0.1 to 1
